Earlier results as cited in patent publication US12551577B2, “7-ethyl-10-hydroxycamptothecin drug precursor with fluorescence activity, and preparation method and use thereof” (SOOCHOW UNIVERSITY, priority 2021, dated 2026).

System: carboxylesterase
Conditions: in vivo; cited from earlier work

**Q.** For CCc1c2c(nc3ccc(OC(=O)N4CCC(N5CCCCC5)CC4)cc13)-c1cc3c(c(=O)n1C2)COC(=O)[C@]3(O)CC [irinotecan], which “fraction of CPT-11 efficiently converted into SN-38” value is on record?
**A.** 2-8%
